Settings: pig, pH 7.4

## CNCCCN1c2ccccc2CCc2ccccc21 [desipramine, reference compound]
  PAMPA-BBB (Pe) experimental permeability: 12.7 10-6 cm.s-1

Reference: paper PMC6480038, “In Vitro and In Silico Acetylcholinesterase Inhibitory Activity of Thalictricavine and Canadine and Their Predicted Penetration across the Blood-Brain Barrier” (Molecules, 2019)
